From US20050054531A1, “N-(phosphonomethyl) glycine (glyphosate) salt, a preparation process thereof, a concentrate composition and a phytotoxic formulation comprising it, and a method to combat weeds in a crop with a formulation thereto” (priority 2003, published 2005)

Assay: Physical properties of the salt (solubility, pH of solution)
Assay type: physicochemical

**Q.** With “1H-1,2,4-triazole-3-yl-amine N-(phosphonomethyl)-glycine salt [Glyphosate triazolamine salt]” as the substance, how does the “solubility in alcohol, ketone, and aromatic solvents” value read?
**A.** insoluble, or very little soluble

**Q.** And the solubility in water?
**A.** highly soluble in water
